Legend:
[1] = test system: Lys(Dnp)-ATNATLDPRIVGG-Lys(Abz)
[2] = test system: Lys(Dnp)-ATNATQDPRIVGG-Lys(Abz)
[3] = test system: Lys(Dnp)-ATNATKHPRIVGG-Lys(Abz)
[4] = test system: Lys(Dnp)-ATNATYDPRIVGG-Lys(Abz)
[5] = test system: Lys(Dnp)-ATNATIYPRIVGG-Lys(Abz)
[6] = test system: Lys(Dnp)-ATNATNFPRIVGG-Lys(Abz)
[7] = test system: Lys(Dnp)-ATNATDHPRIVGG-Lys(Abz)
[8] = test system: Lys(Dnp)-ATNATSGPRIVGG-Lys(Abz)
[9] = test system: Lys(Dnp)-ATNATLVPRIVGG-Lys(Abz)
[10] = test system: Lys(Dnp)-ATNATHRPRIVGG-Lys(Abz)
[11] = test system: Lys(Dnp)-ATNATVWPRIVGG-Lys(Abz)
[12] = test system: Lys(Dnp)-ATNATWSPRIVGG-Lys(Abz)
[13] = test system: Lys(Dnp)-RGDSVVYGLRIVGG-Lys(Abz)
[14] = test system: Lys(Dnp)-ATNATFSPRIVGG-Lys(Abz)
[15] = test system: Lys(Dnp)-ATNATX4X3PRIVGG-Lys(Abz), X4 = H, X3 = A
[16] = test system: Lys(Dnp)-ATNATWHPRIVGG-Lys(Abz)
[17] = test system: Lys(Dnp)-ATNATX4X3PRIVGG-Lys(Abz), X4 = G, X3 = K
[18] = test system: Lys(Dnp)-ATNATGSPRIVGG-Lys(Abz)
[19] = test system: Lys(Dnp)-ATNATLWPRIVGG-Lys(Abz)
[20] = test system: Lys(Dnp)-ATNATDGPRIVGG-Lys(Abz)
[21] = test system: Lys(Dnp)-ATNATX4X3PRIVGG-Lys(Abz), X4 = S, X3 = A
[22] = test system: Lys(Dnp)-ATNATNMPRIVGG-Lys(Abz)
[23] = test system: Lys(Dnp)-ATNATLKPRIVGG-Lys(Abz)
[24] = test system: Lys(Dnp)-ATNATSFPRIVGG-Lys(Abz)
[25] = test system: Lys(Dnp)-ATNATX4X3PRIVGG-Lys(Abz), X4 = Y, X3 = D
[26] = test system: Lys(Dnp)-ATNATASPRIVGG-Lys(Abz)
[27] = test system: Lys(Dnp)-ATNATDNPRIVGG-Lys(Abz)
[28] = test system: Lys(Dnp)-ATNATX4X3PRIVGG-Lys(Abz), X4 = E, X3 = W
[29] = test system: Lys(Dnp)-ATNATX4X3PRIVGG-Lys(Abz), X4 = G, X3 = P
[30] = test system: Lys(Dnp)-ATNATX4X3PRIVGG-Lys(Abz), X4 = N, X3 = K
[31] = test system: Lys(Dnp)-ATNATMWPRIVGG-Lys(Abz)
[32] = test system: Lys(Dnp)-ATNATX4X3PRIVGG-Lys(Abz), X4 = S, X3 = F
[33] = test system: Lys(Dnp)-ATNATX4X3PRIVGG-Lys(Abz), X4 = T, X3 = S
[34] = test system: Lys(Dnp)-ATNATVMPRIVGG-Lys(Abz)
[35] = test system: Lys(Dnp)-ATNATVGPRIVGG-Lys(Abz)
[36] = test system: Lys(Dnp)-ATNATX4X3PRIVGG-Lys(Abz), X4 = G, X3 = A
[37] = test system: Lys(Dnp)-ATNATMAPRIVGG-Lys(Abz)
[38] = test system: Lys(Dnp)-ATNATTKPRIVGG-Lys(Abz)
[39] = test system: Lys(Dnp)-ATNATX4X3PRIVGG-Lys(Abz), X4 = S, X3 = V
[40] = test system: Lys(Dnp)-ATNATDDPRIVGG-Lys(Abz)
[41] = test system: Lys(Dnp)-ATNATGMPRIVGG-Lys(Abz)
[42] = test system: Lys(Dnp)-ATNATILPRIVGG-Lys(Abz)
[43] = test system: Lys(Dnp)-ATNATQVPRIVGG-Lys(Abz)
[44] = test system: Lys(Dnp)-ATNATTHPRIVGG-Lys(Abz)

Substance: Human plasma purified alpha-thrombin
- FIIa kcat/KM [1]: 3100 M⁻¹ s⁻¹
- Specificity Ratio (FIIa/FXa) [1]: 3
- FIIa kcat/KM [2]: 500 M⁻¹ s⁻¹
- Specificity Ratio (FIIa/FXa) [2]: 1
- FIIa kcat/KM [3]: 900 M⁻¹ s⁻¹
- Specificity Ratio (FIIa/FXa) [3]: 16

Substance: Human plasma purified α-thrombin
- kcat/KM [4]: 890 M⁻¹ s⁻¹
- FIIa kcat/KM [5]: 18000 M⁻¹ s⁻¹
- Functional Selectivity (Specificity*FIIa kcat/KM) [5]: 1.5e+06
- kcat/KM [5]: 18000 M⁻¹ s⁻¹
- kcat/KM [6]: 780 M⁻¹ s⁻¹
- FIIa kcat/KM [7]: 1000 M⁻¹ s⁻¹
- Specificity Ratio (FIIa/FXa) [7]: 200
- kcat/KM [8]: 770 M⁻¹ s⁻¹
- Functional Selectivity (Specificity*FIIa kcat/KM) [9]: 2.4e+06
- kcat/KM [10]: 2200 M⁻¹ s⁻¹
- FIIa kcat/KM [11]: 23000 M⁻¹ s⁻¹
- Functional Selectivity (Specificity*FIIa kcat/KM) [11]: 2.8e+06
- kcat/KM [11]: 23000 M⁻¹ s⁻¹
- FIIa kcat/KM [12]: 16000 M⁻¹ s⁻¹
- Functional Selectivity (Specificity*FIIa kcat/KM) [12]: 5.2e+06
- kcat/KM [12]: 16000 M⁻¹ s⁻¹
- FIIa kcat/KM [13]: 410 M⁻¹ s⁻¹
- Functional Selectivity (Specificity*FIIa kcat/KM) [13]: 98000
- Specificity Ratio (FIIa/FXa) [13]: 239
- kcat/KM [13]: 410 M⁻¹ s⁻¹
- FIIa kcat/KM [14]: 9900 M⁻¹ s⁻¹
- Specificity Ratio (FIIa/FXa) [14]: 51
- kcat/KM [14]: 9900 M⁻¹ s⁻¹
- FIIa kcat/KM [15]: 960 M⁻¹ s⁻¹
- Specificity Ratio (FIIa/FXa) [15]: 18
- FIIa kcat/KM [16]: 5400 M⁻¹ s⁻¹
- Functional Selectivity (Specificity*FIIa kcat/KM) [16]: 680000
- kcat/KM [16]: 5400 M⁻¹ s⁻¹
- FIIa kcat/KM [17]: 1200 M⁻¹ s⁻¹
- Specificity Ratio (FIIa/FXa) [17]: 37
- kcat/KM [18]: 1300 M⁻¹ s⁻¹
- FIIa kcat/KM [19]: 36000 M⁻¹ s⁻¹
- Functional Selectivity (Specificity*FIIa kcat/KM) [19]: 1.3e+06
- kcat/KM [19]: 36000 M⁻¹ s⁻¹
- kcat/KM [20]: 350 M⁻¹ s⁻¹
- FIIa kcat/KM [21]: 790 M⁻¹ s⁻¹
- Specificity Ratio (FIIa/FXa) [21]: 41
- kcat/KM [22]: 720 M⁻¹ s⁻¹
- FIIa kcat/KM [23]: 32000 M⁻¹ s⁻¹
- Functional Selectivity (Specificity*FIIa kcat/KM) [23]: 1.4e+07
- kcat/KM [23]: 32000 M⁻¹ s⁻¹
- kcat/KM [24]: 940 M⁻¹ s⁻¹
- FIIa kcat/KM [25]: 890 M⁻¹ s⁻¹
- Specificity Ratio (FIIa/FXa) [25]: 24
- FIIa kcat/KM [26]: 9100 M⁻¹ s⁻¹
- Specificity Ratio (FIIa/FXa) [26]: 29
- kcat/KM [26]: 9100 M⁻¹ s⁻¹
- kcat/KM [27]: 130 M⁻¹ s⁻¹
- FIIa kcat/KM [28]: 390 M⁻¹ s⁻¹
- Specificity Ratio (FIIa/FXa) [28]: 48
- FIIa kcat/KM [29]: 430 M⁻¹ s⁻¹
- Specificity Ratio (FIIa/FXa) [29]: 57
- FIIa kcat/KM [30]: 750 M⁻¹ s⁻¹
- Specificity Ratio (FIIa/FXa) [30]: 55
- FIIa kcat/KM [31]: 18000 M⁻¹ s⁻¹
- Specificity Ratio (FIIa/FXa) [31]: 28
- kcat/KM [31]: 18000 M⁻¹ s⁻¹
- FIIa kcat/KM [32]: 940 M⁻¹ s⁻¹
- Specificity Ratio (FIIa/FXa) [32]: 57
- FIIa kcat/KM [33]: 890 M⁻¹ s⁻¹
- Specificity Ratio (FIIa/FXa) [33]: 56
- FIIa kcat/KM [34]: 15000 M⁻¹ s⁻¹
- Functional Selectivity (Specificity*FIIa kcat/KM) [34]: 810000
- kcat/KM [34]: 15000 M⁻¹ s⁻¹
- FIIa kcat/KM [35]: 5100 M⁻¹ s⁻¹
- Specificity Ratio (FIIa/FXa) [35]: 103
- kcat/KM [35]: 5100 M⁻¹ s⁻¹
- FIIa kcat/KM [36]: 950 M⁻¹ s⁻¹
- Specificity Ratio (FIIa/FXa) [36]: 19
- FIIa kcat/KM [37]: 12000 M⁻¹ s⁻¹
- Specificity Ratio (FIIa/FXa) [37]: 32
- kcat/KM [37]: 12000 M⁻¹ s⁻¹
- FIIa kcat/KM [38]: 1100 M⁻¹ s⁻¹
- Specificity Ratio (FIIa/FXa) [38]: 81
- kcat/KM [38]: 1100 M⁻¹ s⁻¹
- FIIa kcat/KM [39]: 890 M⁻¹ s⁻¹
- Specificity Ratio (FIIa/FXa) [39]: 23
- kcat/KM [40]: 0.0022 M⁻¹ s⁻¹
- kcat/KM [41]: 1200 M⁻¹ s⁻¹
- FIIa kcat/KM [42]: 15000 M⁻¹ s⁻¹
- Specificity Ratio (FIIa/FXa) [42]: 21
- kcat/KM [42]: 15000 M⁻¹ s⁻¹
- kcat/KM [43]: 5400 M⁻¹ s⁻¹
- FIIa kcat/KM [44]: 1300 M⁻¹ s⁻¹
- Specificity Ratio (FIIa/FXa) [44]: 95
- kcat/KM [44]: 1300 M⁻¹ s⁻¹
